This assay can be described thus: cells. The conditions noted are these: Cricetulus griseus, RT16.

Results on 1 compound are retold here after ChEMBL document CHEMBL1156629, “Synthesis and discovery of high affinity folate receptor-specific glycinamide ribonucleotide formyltransferase inhibitors with antitumor activity” (J Med Chem, 2008).

Usually IC50 stands for the concentration that inhibits the measured activity by half. `CN(Cc1cnc2nc(N)nc(N)c2n1)c1ccc(C(=O)N[C@@H](CCC(=O)O)C(=O)O)cc1` [METHOTREXATE] displayed a 50% inhibitory concentration (IC50) of 461 nM. In other words, the sub-micromolar range.
